This is an account of results in patent US20070074295A1 (priority 2000, published 2007).

The subject of the assay is CIRL-1 (calcium independent alpha-latrotoxin receptor). Kind of assay: Rat Atlas Array, prefrontal cortex, chronic PCP model.

For `c1ccc(C2(N3CCCCC3)CCCCC2)cc1` [PCP, phencyclidine], the “E3C (CIRL) expression change (Atlas Array)” value (after PCP treatment regime, first experiment) was “increase”. Moreover, the “CIRL-1 expression (Atlas Array)” value (chronic PCP, second experiment) is 9145 ± 669 relative optical densities.
